How the values were obtained:
CD47 [1] = target: CD47 (UniProt Q08722); experiment: blocking of the CD47-SIRPα interaction (m14 is the blocked ligand), % inhibition against Log[Ab] nM; assay format not given in the text
CD47 [2] = target: CD47 (UniProt Q08722); experiment: antibody titration read as mean fluorescence intensity (MFI) against Log[Ab] nM; cells or beads and target are not named on the sheet or in the text, CD47 taken as target because both are anti-CD47 antibodies

Protein sequences, listed by entry. Tags and fused reporters are not part of them. Residues count along the entry.
UniProt Q08722, 19-139 limits assumed: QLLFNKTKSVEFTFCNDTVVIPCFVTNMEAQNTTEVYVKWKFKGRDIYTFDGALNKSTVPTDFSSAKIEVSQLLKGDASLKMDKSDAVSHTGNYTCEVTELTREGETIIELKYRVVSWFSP

IC50 (CD47 [1]): 5.77 nM
EC50 (CD47 [2]): 5.47 nM
Substance: reference antibody 5F9 (Forty Seven, Inc.)

Reference: patent publication US20220144943A1 (INTEGRITY BIOVENTURES, published 2022)
